Test results from patent US20260382572A1, “TREATMENT OF FRONTOTEMPORAL DEMENTIA OR FRONTOTEMPORAL LOBAR DEMENTIA” (published 2026).

Tests used:
[1] = tested on: hyperphosphorylated tau (hTauP301L); experiment: hTauP301L FTD model, adult mice: tau soluble and insoluble in sarkosyl by western blot; details: oral 50 mg/kg/day 35 days
Method: FIG. 8. Compound 1 reduces insoluble forms of hyperphosphorylated tau species in adult mice with hTauP301L tauopathy after 35 days oral administration (50 mg/kg/day). (A). Representative images of WB against AT8 and (B) AT180 antibodies of sarkosyl solule and insoluble protein species. Quantification of sarkosyl soluble (n=10) (C) and insoluble species (D) using AT8 antibody (n=10). Quantification of sarkosyl soluble (n=10) (E) and insoluble species (F) using AT180 antibody (n=10).
(§1) In vivo hTau301L model was induced by stereotaxic injection of AAV-hTauP301L (AAV-hTau) particles as described in [Luengo, Enrique et al. “Implication of type 4 NADPH oxidase (NOX4) in tauopathy.” Redox biology vol. 49 (2022): 102210. doi:10.1016/j.redox.2021.102210]. Control animals were injected with AAV-GFP. Evaluation of hyperphosphorylated tau in sarkosyl soluble and insoluble fractions; microgliosis; AT8 and AT180 by immunofluorescence; and cognitive test were performed as described previously [Luengo, Enrique et al. “Implication of type 4 NADPH oxidase (NOX4) in tauopathy.” Redox biology vol. […]
(§2) Example 2.5. […] After 35 days treatment, hyperphosphorylated tau levels were evaluated by immunofluorescence and by WB in soluble and insoluble in sarkosyl fractions. […]
After 35 days of treatment, monomeric and oligomeric forms of tau, soluble and insoluble in sarkosyl, were analysed by western blot. […]

[2] = tested on: IL-1β and TNFα mRNAs in mouse brain; experiment: LPS in vivo model: proinflammatory cytokine mRNA in mouse brain (qRT-PCR); details: 20 mg·kg^−1 i.p. daily 4 days, 4 h and 24 h after LPS 0.5 mg·kg^−1
Method: FIG. 2. Compound 1 decreases the inflammatory process 4 and 24 hours after LPS administration in vivo. Compound 1 (20 mg·kg^−1) daily was injected i.p. four days before the i.p. LPS (0.5 mg·kg^−1) administration.
The LPS in vivo model was induced, sickness behaviour evaluated (locomotion test and novel object recognition test) and cytokines measured by qPCR as described by [Fernindez-Mendivil, Cristina et al. “Protective role of microglial HO-1 blockade in aging: Implication of iron metabolism.” Redox biology vol. 38 (2021): 101789. doi:10.1016/j.redox.2020.101789]. The panel of mouse cytokines, chemokines, and growth factors were measured by Luminex xMAP technology for multiplexed quantification at Evetechnologies (https://www.evetechnologies.com/)
Example 2.3.1. Treatment with Compound 1 reduces LPS-induced cytokine expression and release in mouse brain. Mice were treated i.p. with a daily dose of 20 mg·kg^−1 of Compound 1 for 4 consecutive days. On the last day, LPS (0.5 mg·kg^−1) was injected i.p. one h after the compound. Thereafter, behavioural, and biochemical outcomes were analysed at different time points.

[3] = tested on: aged mice with hTauP301L tauopathy; experiment: hTauP301L FTD model, aged mice: T-maze; details: 35 days
Method: FIG. 10. Compound 1 reduces hyperphosphorylated tau species and improves cognitive behaviour in aged (16-18 months old) mice with hTauP301L tauopathy after days oral administration (50 mg/kg/day). (A). Representative images of hyperphosphorylated tau intensity measured by AT8 and AT180 antibodies in three different regions of the hippocampus (GD, CA3 and CA1) (n=12). (B) Quantification AT8 intensity, normalized to CA3 intensity of Sham animals. (C) Quantification of AT180 intensity, normalized to CA3 intensity of Sham animals. (D) Experimental protocol of T-maze alternation test and (E) Object Location test (OLT). (F) Average of the percentage of success in seven independent attempts (n=6).
In vivo hTau301L model was induced by stereotaxic injection of AAV-hTauP301L (AAV-hTau) particles as described in [Luengo, Enrique et al. “Implication of type 4 NADPH oxidase (NOX4) in tauopathy.” Redox biology vol. 49 (2022): 102210. doi:10.1016/j.redox.2021.102210]. Control animals were injected with AAV-GFP. […]
Example 2.6. […] 35 Days of treatment with a single oral dose of Compound 1 at 50 mg/kg reduced hyperphosphorylated tau levels induced by hTauP301L, measured by AT8 and AT180 antibodies in DG, CA3 and CA1 regions of the hippocampus (FIG. 10A-C). […]

[4] = tested on: adult mice with hTauP301L tauopathy; experiment: hTauP301L FTD model, adult mice: T-maze; details: 35 days
Method: FIG. 9. Compound 1 prevents cognitive decline in spatial memory behavioural paradigms in adult mice with hTauP301L tauopathy after 35 days oral administration (20 mg/kg or 50 mg/kg/day). (A) Representation of T-maze alternation test and (B) Object Location test (OLT). (C) Average percentage of success in seven independent attempts (n=14-19). (D) Discrimination index in the OLT assay (AAV-eGFP, n=15; AAV-hTau, n=10; AAV-hTau+Compound 1 at 20 mg/kg, n=5; AAV-hTau+Compound 1 at 50 mg/kg, n=8).
as §1, §2
Spatial memory was measured using the T-maze (FIG. 9A) and the Object localization tests (OLT; FIG. 9B).

## COc1ccc2c(c1)CC(c1c[nH]c3ccc(OC)cc13)N2 (centres unmarked)
[1]
  insoluble tau monomers (sarkosyl), AT180 (FIG. 8F): significant reduction of insoluble monomers
  insoluble tau oligomers (sarkosyl), AT180 (FIG. 8F): tendency to reduce insoluble oligomers
[2]
  IL-1β mRNA: reduced
  TNFα mRNA: reduced
[3]; aged (16-18 months) mice, oral 50 mg/kg
  spatial memory loss, T-maze: prevented
[3]; young and aged subjects, 50 mg/kg oral once a day, T-maze and OLT
  cognitive decline (summary): prevented cognitive decline
[4]; oral 20 mg/kg or 50 mg/kg
  T-maze percentage of success: dose-dependent improvement
[4]; oral 50 mg/kg
  T-maze percentage of success: total recovery was achieved
